Data taken from publication PMC13266984 (Journal of medicinal chemistry, 2026).

Amino acid sequences for entries named in this document (tags omitted).
UniProt P30838, whole entry: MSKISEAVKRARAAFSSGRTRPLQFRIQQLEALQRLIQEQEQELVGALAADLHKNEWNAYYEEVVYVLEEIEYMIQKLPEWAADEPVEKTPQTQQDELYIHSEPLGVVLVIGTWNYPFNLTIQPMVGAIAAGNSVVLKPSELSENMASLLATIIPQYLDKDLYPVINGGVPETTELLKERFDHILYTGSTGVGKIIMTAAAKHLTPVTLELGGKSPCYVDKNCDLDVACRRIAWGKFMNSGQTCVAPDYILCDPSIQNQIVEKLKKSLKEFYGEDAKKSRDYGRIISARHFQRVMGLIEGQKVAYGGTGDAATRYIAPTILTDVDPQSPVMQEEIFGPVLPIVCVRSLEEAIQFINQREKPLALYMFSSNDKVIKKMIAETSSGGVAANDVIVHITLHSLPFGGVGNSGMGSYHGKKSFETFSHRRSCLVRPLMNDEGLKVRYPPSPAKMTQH

Experiments:
Human ALDH3A1 [1] = target: T1, Human ALDH3A1 (Homo sapiens, UniProt P30838); experiment: ALDH3A1 biochemical assay (benzaldehyde/NADP+, diaphorase-resazurin readout, 1,536-well); conditions: read-out: ALDH3A1 biochemical IC50
OE19 (3A1) = OE19 (3A1) (Homo sapiens, UniProt P30838); experiment: Cellular ALDEFLUOR assay in OE19 cells (preferential ALDH3A1 expression); conditions: read-out: cellular IC50 (Aldefluor)
Human ALDH3A1 [2] = target: T1, Human ALDH3A1; experiment: Diazirine photo-crosslinking with recombinant ALDH3A1 and LC-MS/MS proteomics; conditions: UV irradiation, HPLC-MS/MS

In the case of `C#CCCC1(CCOc2cccc(CNC(=O)c3csc(N4CCN(c5cccc(C(F)(F)F)c5)CC4)n3)c2)N=N1`, the IC50 (Human ALDH3A1 [1]) is reported as 738 nM, the IC50 (OE19 (3A1)) is reported as 15 nM and the “peptide sequence modified by photo-crosslinking” value (Human ALDH3A1 [2]) is reported as “WNAYYEEVVYVLE”.
